The text below walks through data of ChEMBL document CHEMBL1151944, “Activation of peroxisome proliferator-activated receptor gamma (PPARgamma) by nitroalkene fatty acids: importance of nitration position and degree of unsaturation” (J Med Chem, 2009).

Amino acid sequences for entries named in this document (tags omitted). A change or cut given only in a name is not applied to a line headed by its entry.
UniProt P37231: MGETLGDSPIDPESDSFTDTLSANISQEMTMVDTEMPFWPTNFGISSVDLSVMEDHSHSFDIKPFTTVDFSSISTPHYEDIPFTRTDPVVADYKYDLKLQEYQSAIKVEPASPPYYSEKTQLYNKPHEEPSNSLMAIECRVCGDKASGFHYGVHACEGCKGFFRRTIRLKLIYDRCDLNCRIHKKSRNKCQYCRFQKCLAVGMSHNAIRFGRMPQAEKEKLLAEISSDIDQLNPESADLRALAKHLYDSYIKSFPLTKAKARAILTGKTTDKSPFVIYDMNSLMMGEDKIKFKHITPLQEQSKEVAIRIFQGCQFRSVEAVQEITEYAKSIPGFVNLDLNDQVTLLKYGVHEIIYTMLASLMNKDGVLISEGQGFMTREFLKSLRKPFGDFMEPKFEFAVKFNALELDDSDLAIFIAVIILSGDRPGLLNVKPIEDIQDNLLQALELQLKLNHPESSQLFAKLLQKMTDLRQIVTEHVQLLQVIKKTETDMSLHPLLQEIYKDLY

For test [1], the target named is T1, Peroxisome proliferator-activated receptor gamma (Homo sapiens, UniProt P37231). Nature of the test: Displacement of [3H2]nTZD3 from GST-tagged human recombinant PPARgamma by scintillation proximity assay. (SPA uses beads or plates that emit light when radiolabelled molecules are held near them.)
For test [2], the target named is T1, Peroxisome proliferator-activated receptor gamma.
Test [3] has the same target. The source holds these as a separate data set.

As usually defined, the IC50 is the concentration at which inhibition is half-maximal. As a reminder, the EC50 is the midpoint of the concentration-response curve. As to `CCCCC/C=C(\C/C=C\CCCCCCCC(=O)O)[N+](=O)[O-]`, the IC50 in test [1] was determined as 410 nM. For the same compound, the EC50 in test [2] was 70 nM; in test [3], 45 nM.
